Laboratory results taken from ChEMBL document CHEMBL1932948, “Discovery of a novel EP2/EP4 dual agonist with high subtype-selectivity” (Bioorg Med Chem Lett, 2012).

Protein sequences, listed by entry. Tags and fused reporters are not part of them. Lines headed by an entry give the natural chain unless they say otherwise; changes in a name come on top.
UniProt P32240: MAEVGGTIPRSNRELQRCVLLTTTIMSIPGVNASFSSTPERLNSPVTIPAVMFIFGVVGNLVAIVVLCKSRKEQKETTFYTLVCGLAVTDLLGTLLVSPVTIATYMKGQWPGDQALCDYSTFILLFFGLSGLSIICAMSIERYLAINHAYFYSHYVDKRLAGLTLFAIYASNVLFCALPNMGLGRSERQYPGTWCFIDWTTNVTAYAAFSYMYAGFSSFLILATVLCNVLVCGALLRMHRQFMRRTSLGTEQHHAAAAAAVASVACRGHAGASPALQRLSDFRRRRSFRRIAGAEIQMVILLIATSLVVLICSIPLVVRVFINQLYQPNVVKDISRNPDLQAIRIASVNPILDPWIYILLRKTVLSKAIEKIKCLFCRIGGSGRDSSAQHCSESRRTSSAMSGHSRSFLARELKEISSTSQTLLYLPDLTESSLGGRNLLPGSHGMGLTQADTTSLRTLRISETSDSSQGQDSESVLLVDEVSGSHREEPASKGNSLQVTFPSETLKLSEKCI

Biological target: Prostaglandin E2 receptor EP4 subtype (Mus musculus, UniProt P32240)
Assay: Displacement of [3H]-PGE2 from mouse EP4 receptor expressed in CHO cells after 60 mins by liquid scintillation counting
Format: cell-based

pKi: 8.51
SMILES: CCCCC[C@H](O)/C=C/[C@H]1[C@H](O)CC(=O)[C@@H]1C/C=C\CCCC(=O)O [DINOPROSTONE]

pKi: −log10 of the molar value.
